Test results from US20040175401A1, “Enhanced parmacokinetic profile of hydrophobic substances” (priority 2001, published 2004).

Experiment: n-octanol/water partition coefficient LogPoct calculated from solubility data
Conditions: calculated as logPoct = (0.99 - logSw)/1.34

Structure (SMILES)	LogPoct
CCCCC(=O)OCN1C(=O)NC(c2ccccc2)(c2ccccc2)C1=O [3-pentanoyloxymethyl-5,5-diphenylhydantoin]	4.23
O=C1NC(=O)C2(CCCCCC2)C(=O)N1 [5,5-CH2)6-barbituric acid]	3.10
C=CCC1(C(C)C)C(=O)NC(=O)NC1=O [5-iPr-5-allyl-barbituric acid]	2.01
CC(=O)/C=C/C1C(C)=CCCC1(C)C (stereo not shown) [a-ionone]	3.02
